Reference: publication PMC8507859

Target: recombinant catalytic domain of human MMP-14 (amino acids 89-265) (human) (UniProt P50281)

decrease of MMP-14 activity (SensoLyte 520 MMP-14 assay, 5-FAM/QXL520 FRET peptide substrate; catalytic domain pre-incubated overnight at 37 °C with 100 μM peptide) | Substance
33% | L9Mc (peptide)
92% | lumcorin (peptide)
